Test results taken from US20130225839A1, “PREPARATION METHOD OF FOSAMPRENAVIR DERIVATIVES AND RELEVANT INTERMEDIATE THEREOF” (ZHEJIANG JIUHOU PHARMA SCIENCE & TECHNOLOGY CO., LTD., priority 2010, published 2013).

Legend:
[1] = cited from earlier work
[2] = solubility in water or ethanol

| Substance | solubility in water at 25° C. [1] | solubility in ethanol ([2]; ethanol) | solubility in water ([2]; water) |
| --- | --- | --- | --- |
| [(3S)-oxolan-3-yl]N-(2S,3R)-4-[(4-aminophenyl)sulfonyl-(2-methylpropyl)amino]-1-phenyl-3-phosphonooxy-butan-2-yl]carbarnate calcium salt [Fosamprenavir calcium] | 100 mg/mL | – | – |
| calcium (3S)-tetrahydrofuran-3-yl(1S,2R)-3-[(4-nitrophenyl)sulfonyl](isobutyl)amino-1-benzyl-2-(phosphonooxy)propyl-carbamate | – | extremely small solubility | extremely small solubility |
